# Measurements taken from patent US20040254344A1, “Amino acid conjugates providing for sustained systemic concentrations of gaba analogues” (priority 2001, published 2004).
# Settings: rat, oral prodrug 25 mg-equivalents of gabapentin per kg
# Method: The pharmacokinetics of the prodrugs prepared in Examples 1 and 3 were examined in rats. […] Animals were fasted overnight prior to dosing and until 4 hours post-dosing. Serial blood samples were obtained over 24 hours following dosing and blood was processed for plasma by centrifugation. Plasma samples were stored at −80° C. until analyzed.
# Plasma (50 μL) was precipitated by addition of […] of methanol and supernatant was injected directly onto the LC/MS/MS system. […] Following oral administration of gabapentin prodrugs, concentrations of prodrug and gabapentin in plasma were monitored over 24 hours.
substance,measurement,value
L-Tyrosine-(O-2-Bromobenzyloxycarbonyl)-Gabapentin [4d],Cmax PD (Cmax of prodrug in plasma),< 4 ng/mL
